Measurements published in PubChem BioAssay AID602244 (Sanford-Burnham Center for Chemical Genomics, 2012).
Only a part is listed here, and it is no random draw. The source made the active and inactive calls. Rule as the data show it: active = inhibition above about 34% (passing the limit was not always enough); inactive = the rest.

Sequences of proteins named here, by UniProt entry; tags and fusion partners are left off. A change or cut given only in a name is not applied to a line headed by its entry.
UniProt O00574: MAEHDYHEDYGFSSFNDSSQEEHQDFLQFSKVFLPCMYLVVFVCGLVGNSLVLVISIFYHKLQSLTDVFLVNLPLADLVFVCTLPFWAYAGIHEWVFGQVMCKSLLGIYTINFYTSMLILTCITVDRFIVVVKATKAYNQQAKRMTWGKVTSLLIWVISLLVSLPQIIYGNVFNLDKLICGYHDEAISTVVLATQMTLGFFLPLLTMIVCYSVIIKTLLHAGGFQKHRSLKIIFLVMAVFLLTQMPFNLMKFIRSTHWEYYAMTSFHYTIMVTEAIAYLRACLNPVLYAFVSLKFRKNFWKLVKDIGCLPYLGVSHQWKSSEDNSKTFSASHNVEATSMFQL

target: C-X-C chemokine receptor type 6 (Homo sapiens) (UniProt O00574); assay: CXCR6 receptor inhibitors, primary screen, cell-based, beta-arrestin, luminescence, CHO-K1 PathHunter, 1536-well (AID 602244); conditions: at 20 µM, hits give high values;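 also: antagonist mode with CXCL16 agonist at 10 nM final; 0% = 10 nM CXCL16 with DMSO and 100% = unstimulated wells without agonist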

SMILES	inhibition
CC(=O)Nc1ccc([As](=O)(O)O)c(O)c1	inactive: -1.2%
CCOc1ccc(C2=NCC(CBr)S2)cc1 (configuration not stated)	inactive: 2.2%
O=P1(Nc2nc3ccc(Cl)cc3s2)COc2ccccc2O1 (configuration not stated)	inactive: 0.4%
CC(C)(C)C(=O)NC(Sc1ccccc1)C(Cl)(Cl)Cl (configuration not stated)	inactive: 10.4%
CCc1cc(O)c([N+](=O)[O-])c(C)c1[N+](=O)[O-]	inactive: 7.9%
O=P(Nc1nccs1)(c1ccccc1)c1ccccc1	inactive: -2.8%
CC(C)C(=O)NC(Sc1ccccc1)C(Cl)(Cl)Cl (configuration not stated)	inactive: 2.5%
c1nnnn1CCn1cnnn1	inactive: -11.9%
O=[As](O)(c1ccccc1)c1ccc(O)cc1	inactive: 2.5%
O=[N+]([O-])c1ncn(CCn2cnc([N+](=O)[O-])n2)n1	inactive: -11.2%
CC(=O)NC(SC(=S)N(C)C)C(Cl)(Cl)Cl (configuration not stated)	inactive: 17%
O=[N+]([O-])c1ccc(O)c(/C=N/Nc2ccc([N+](=O)[O-])cc2[N+](=O)[O-])c1	inactive: 31.5%
O=C(OC1CN2CCC1CC2)c1cccc(Cl)c1 (configuration not stated)	inactive: 0.5%
Nc1ccc([As](=O)(O)c2ccc([N+](=O)[O-])cc2)cc1	inactive: 6.7%
C(Cc1nn[nH]n1)Cc1nn[nH]n1	inactive: -4.2%
CN(C)C1(CNC(=O)c2ccc(Cl)c(S(N)(=O)=O)c2)CCCCC1	inactive: -6%
O=P(Nc1ccccn1)(c1ccc(Br)cc1)c1ccc(Br)cc1	inactive: 1.1%
Nc1ccc(CCCCOc2ccccc2)cc1	inactive: 15.6%
COc1ccc(N)c([N+](=O)[O-])c1[N+](=O)[O-]	inactive: 14.2%
C[C@H]1OP(=O)(Oc2ccccc2)[C@H](O)[C@H](O)[C@H]1N=[N+]=[N-] (some centres not stated)	inactive: -1.6%
O=P(Nc1nc2ccccc2s1)(c1ccccc1)c1ccccc1	inactive: -1.3%
Cc1ccc(S(=O)(=O)N(CCCN)CCCc2c(C)nc(N)[nH]c2=O)cc1	inactive: 22.1%
O=P1(Nc2ncccn2)COc2ccccc2OC1	inactive: -2.5%

SMILES	inhibition
Nc1cccc([As](=O)(O)c2ccccc2)c1	inactive: -2%
NS(=O)(=O)c1cccc(NC(=O)COC(=O)C(O)(c2ccccc2)c2ccccc2)c1	inactive: -4.6%
O=P1(Nc2ccc(Br)cn2)COc2ccccc2OC1	inactive: -12%
O=[As](O)(c1cccs1)c1cccs1	inactive: 4.7%
Cc1ccc(OCC(=O)OC2CN3CCC2CC3)cc1 (configuration not stated)	inactive: -8.5%
Cc1ccc(C(=O)OC2CN3CCC2CC3)cc1 (configuration not stated)	inactive: 4%
CC1CCC(C(C)C)C(OP(=O)(Nc2ccccn2)c2ccccc2)C1 (configuration not stated)	inactive: 9.3%
Cc1nn(-c2ccccc2)c2c1P(=O)(N1CCOCC1)N(C)C(c1ccccc1)=N2 (configuration not stated)	inactive: -6.8%
CN(C)C1(CNC(=O)c2ccc(S(C)(=O)=O)cc2)CCCCC1	inactive: -0.4%
CCCC1OP(=O)(Nc2ccccc2)OCC1CC (configuration not stated)	inactive: -1.2%
O=C(/C=C/c1ccccc1)OC1CN2CCC1CC2 (configuration not stated)	inactive: -19.1%
COc1ccccc1CNC(=O)COC(=O)C(O)(c1ccccc1)c1ccccc1	inactive: 8.6%
CN(C(=O)Cc1ccc(Cl)c(Cl)c1)[C@@H]1CCCC[C@H]1N1CCCC1	inactive: 0.6%
CC(C)/C=N\N=C(\N)N[N+](=O)[O-]	inactive: 4.7%
CC1(CBr)Cn2c(nc3ccccc3c2=O)S1 (configuration not stated)	inactive: 5.5%
CCOP(=O)(NC(=NC(C)c1ccccc1)NC(C)c1ccccc1)OCC (configuration not stated)	inactive: 1.2%
CCC1=CC2Cc3nc4ccc(Cl)cc4c(N)c3C(C1)C2 (configuration not stated)	inactive: 0.1%
O=P1(Nc2ccccn2)COc2ccccc2OC1	inactive: 3.3%
CN(CCCl)Cc1cc(Cl)c(NC2=NCCN2)c(Cl)c1	inactive: 4.5%
CCOP(=O)(Nc1ccc(C)cn1)OCC	inactive: 8.6%
CC(C)(C)C(=O)NC(Sc1ncccn1)C(Cl)(Cl)Cl (configuration not stated)	inactive: -1.4%
Clc1n[nH]nc1-c1nn[nH][15n]1	inactive: -5.8%
O=P1(N(CCCl)CCCl)NCCC(C(F)(F)F)O1 (configuration not stated)	inactive: -5.9%

SMILES	inhibition
Nc1cccc2c([As](=O)(O)O)cccc12	inactive: -9%
Cc1ccc(NCCc2c([N+](=O)[O-])cc([N+](=O)[O-])cc2[N+](=O)[O-])cc1	inactive: 8.3%
CCCOP(=S)(Nc1nc(N)cc(=O)[nH]1)OCCC	inactive: 2%
CCOP(=O)(Nc1cccc2ccccc12)OCC	inactive: 0.8%
COc1cc(C2NCCC3(OCCO3)C2(C)C)cc(OC)c1OC (configuration not stated)	inactive: 2.1%
O=C(OC1CN2CCC1CC2)c1ccc(Cl)cc1 (configuration not stated)	inactive: 1.2%
CS(=O)(=O)c1ccc(Cl)c(NC(=O)COC(=O)C(O)(c2ccccc2)c2ccccc2)c1	inactive: 1.4%
COc1cc(C(=O)NCC2(N3CCOCC3)CCCCC2)cc(Cl)c1OC(C)C	inactive: 1.9%
O=[As](O)(O)c1cccnc1	inactive: -2%
O=[As](O)(c1cccc(O)c1)c1cccc(O)c1	inactive: -2%
Cc1cccc(OCC(=O)OC2CN3CCC2CC3)c1 (configuration not stated)	inactive: -1.7%
NC(=O)Nc1ccc([As](=O)(O)O)cc1	inactive: 4.6%
CN(C(=O)Cc1ccccc1)[C@@H]1CC[C@]2(CCCO2)C[C@H]1N1CCCC1	inactive: -6.6%
CCOP1(=S)c2c(C)nn(CCC#N)c2N=C(c2ccc(F)cc2)N1C (configuration not stated)	inactive: 2.8%
N#CCCN(C(=O)COC(=O)C(O)(c1ccccc1)c1ccccc1)c1ccc(F)cc1	inactive: 4.7%
CN(C(=O)Cc1ccc(Cl)c(Cl)c1)[C@H]1CC[C@@]2(CCCO2)C[C@@H]1N1CCCC1	inactive: -3.1%
CN(C)C(=O)c1cc([N+](=O)[O-])cc2c1-c1c(cc([N+](=O)[O-])cc1[N+](=O)[O-])C2=O	active: 30.8%
O=[N+]([O-])c1ccc2c(c1)nnn2O	inactive: 5.2%
O=P(Nc1nccs1)(c1ccccc1)c1nc2ccccc2s1 (configuration not stated)	inactive: -10.2%
O=P(Nc1nccs1)(Oc1ccccc1)Oc1ccccc1	inactive: 1.6%
CCOP1(=S)c2c(C)nn(CCC#N)c2N=C(c2ccccc2F)N1C (configuration not stated)	inactive: -5.4%
CS(=O)(=O)c1cc([N+](=O)[O-])c2no[n+]([O-])c2c1	inactive: 6.5%
O=C(O)COc1ccc([As](=O)(O)O)cc1[N+](=O)[O-]	inactive: 1.8%

SMILES	inhibition
Nc1ccccc1[As](=O)(O)c1ccccc1	inactive: -4.2%
ClCCSc1nnc(-c2cccnc2)o1	inactive: 5.7%
CC(C)c1ccc(OP(=O)(Nc2ccccn2)Oc2ccccc2F)cc1 (configuration not stated)	inactive: 4.2%
COC(=O)C1(C)COP(=O)(N2CCCCCC2)OC1 (configuration not stated)	inactive: -3%
O=[N+]([O-])c1cc([N+](=O)[O-])c(-c2ccn[nH]2)s1	inactive: -14.9%
O=C(OC1CN2CCC1CC2)c1cccc2[nH]cnc12 (configuration not stated)	inactive: 2.2%
CCN(CC)C(=S)SC(NC=O)C(Cl)(Cl)Cl (configuration not stated)	inactive: 7.2%
CC(C)NC(=O)NP(=O)(Oc1ccccc1)Oc1ccccc1	inactive: -1.1%
COc1cc(C(=O)NCC2(N3CCOCC3)CCCCC2)ccc1OCC(C)C	inactive: 4.9%
O=[N+]([O-])c1ccc(-c2cc([N+](=O)[O-])c(O)c([N+](=O)[O-])c2)cc1	inactive: 21.2%
O=[As](O)(c1ccc(O)cc1)c1ccccc1O	inactive: -1.9%
C[As](=O)(O)c1cccc(C(=O)O)c1	inactive: -2.9%
Cc1ccc(OP(=O)(Nc2ccc([N+](=O)[O-])cn2)Oc2ccc(C)cc2)cc1	inactive: 17.1%
[N-]=[N+]=NC1CCCCC1NC(=O)c1cc([N+](=O)[O-])cc([N+](=O)[O-])c1 (configuration not stated)	inactive: -21%
Cc1ccc2nc3c(c(C)c2c1)CC(C(Cl)Cl)S3 (configuration not stated)	inactive: 2.9%
O=[N+]([O-])c1cc(Oc2ccc([N+](=O)[O-])cc2C(F)(F)F)cc([N+](=O)[O-])c1	inactive: -3%
COc1ccc(N/C(=N/P(=O)(N2CCOCC2)N2CCOCC2)N2CCOCC2)cc1	inactive: -12.6%
Cc1c2c(nc3ccccc13)SC(C(Cl)Cl)C2 (configuration not stated)	inactive: -11.2%
Cc1cc(=O)[nH]c(N[N+](=O)[O-])n1	inactive: -3.7%
O=C(OC1CN2CCC1CC2)C12CC3CC(CC(C3)C1)C2 (configuration not stated)	inactive: -10.4%
O=P1(N(CCCl)CCCl)Nc2ccccc2N1	inactive: -2%
O=P1(N(CCCl)CCCl)OCCCN1CCCl (configuration not stated)	inactive: 0.1%
COc1cc(I)ccc1[As](=O)(O)O	inactive: -5.6%

SMILES	inhibition
COc1ccc2nc(NP(=O)(c3ccccc3)c3ccccc3)sc2c1	inactive: 0.3%
CSc1ccc(Nc2c([N+](=O)[O-])cc([N+](=O)[O-])cc2[N+](=O)[O-])cc1	active: 47.6%
O=C(OC1CN2CCC1CC2)c1cccc([N+](=O)[O-])c1 (configuration not stated)	inactive: 2.4%
CCOC(=O)c1ccc(NC(=O)C(C)(CCl)SC)cc1 (configuration not stated)	inactive: -1.3%
CCC(C)N(CC(C)C)C(=S)SC(NC(C)=O)C(Cl)(Cl)Cl (configuration not stated)	inactive: 25.3%
COC(=O)C1(C)COP(=O)(N2CCCC2)OC1 (configuration not stated)	inactive: 0.1%
COP1(=S)c2c(C)nn(CCC#N)c2N=C(c2ccc(F)cc2)N1C (configuration not stated)	inactive: 5.5%
O=C(O)C(=O)c1ccc(N(CCCl)CCCl)cc1	inactive: 2.8%
O=C(Nc1ccncc1[N+](=O)[O-])c1ccc([N+](=O)[O-])cc1[N+](=O)[O-]	inactive: -1.6%
O=C(COc1ccccc1)OC1CN2CCC1CC2 (configuration not stated)	inactive: 7.8%
CCOC(=O)Nc1cccc([As](=O)(O)O)c1	inactive: 2.7%
Cc1cc(SC(NC=O)C(Cl)(Cl)Cl)ncn1 (configuration not stated)	inactive: -10.8%
O=P(Nc1ccccn1)(c1cccc2ccccc12)c1cccc2ccccc12	inactive: -21.7%
O=[N+]([O-])c1ccc(Nc2ccc(Oc3ccc([N+](=O)[O-])cc3[N+](=O)[O-])cc2)c([N+](=O)[O-])c1	inactive: -5.3%
O=C(O)C(O)c1ccc(N(CCCl)CCCl)cc1 (configuration not stated)	inactive: 0.3%
CCOC(=O)Nc1ccc([As](=O)(O)O)c(O)c1	inactive: -3.4%
CC1CCNP(=O)(N(CCCl)CCCl)O1 (configuration not stated)	inactive: 1.9%
COP(=O)(OC)N1CC1c1ccccc1 (configuration not stated)	inactive: -0.3%
Cc1cc(SC(NC(=O)c2ccccc2)C(Cl)(Cl)Cl)nc(C(C)C)n1 (configuration not stated)	inactive: 1.6%
CCCCOc1ccc(C(=O)NCC2(N3CCCCC3)CCCCC2)cc1OC	inactive: 3.7%
